From article PMC8163216, “Macrocycle synthesis strategy based on step-wise “adding and reacting” three components enables screening of large combinatorial libraries” (Chemical Science, 2020)

Target: human thrombin (Homo sapiens, UniProt P00734)
Assay: Determination of the inhibitory constants of purified macrocycles (thrombin, fluorogenic substrate Z-Gly-Gly-Arg-AMC)
Details: for Ki: purified macrocycle, 2 nM thrombin, 50 μM Z-Gly-Gly-Arg-AMC, Ki from IC50 by Cheng-Prusoff
Description: Determination of the inhibitory constants of macrocycles
The IC50s of macrocycles were determined by measuring the residual activity of thrombin at different dilutions of macrocycle using a fluorogenic substrate. The reactions were performed in a volume of 150 µl in 96-well plates. A volume of 50 µl of 2-fold dilutions of macrocycle in assay buffer (10 mM Tris-Cl [pH 7.4], 150 mM NaCl, 10 mM MgCl2, 1 mM CaCl2, 0.1% w/v BSA, 0.01% v/v Triton-X100) were pipetted to the wells. A volume of 50 µl of thrombin (6 nM) in assay buffer was added to each well to reach a final concentration of 2 nM and was incubated for 15 min. A volume of 50 µl of the fluorogenic substrate Z-Gly-Gly-Arg-AMC (150 µM) in assay buffer containing 3% DMSO was added to reach a final substrate concentration of 50 µM and 1% DMSO. Fluorescence intensity was measured for 30 min using an Infinite M200Pro plate reader (Tecan; excitation at 368 nm, emission at 467 nm) with a read every minute.
Sigmoidal curves were fitted to the data using Prism 5 (GraphPad software) and the following dose- […]
wherein x is macrocycle concentration, y is % protease activity, and p is Hill slope. IC50 values were derived […]
The inhibitory constants (Ki) were calculated using the following equation of Cheng and Prusoff: […]
wherein IC50 is the functional strength of the inhibitor, [S]0 is the total substrate concentration, and Km is the Michaelis-Menten constant. The Km for thrombin and the substrate Z-Gly-Gly-Arg-AMC was determined to […]

Compound | Ki [nM] | fold improvement of Ki over parental macrocycle 7 (thrombin Ki relative to 7) [fold]
N=C(N)Nc1ccc(C[C@@H]2NC(=O)C[C@H]3CCCN3C(=O)CN(Cc3ccco3)Cc3ccccc3CSC[C@@H](C(N)=O)NC2=O)cc1 | 4.2 | 14
N=C(N)NCCCC[C@@H]1NC(=O)C[C@H]2CCCN2C(=O)CN(Cc2ccco2)Cc2ccccc2CSC[C@@H](C(N)=O)NC1=O | 12.8 | 
